Bioassay records (PubChem BioAssay)
miR-21 FLuc: raises the signal of a miR-21 reporter | HeLa miR-21 FLuc reporter, luciferase, 48 h | 340,000 tested, under 10 active | Potency, µM (titrated, usually from 38.3 µM); active = well fitted rising curve with a large enough effect; inconclusive = small, poorly fitted or top-dose-only effect; inactive = no such curve, though single readings can be large or run the other way;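 further: miR-21 action dims this reporter so a rising signal means less miR-21 action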
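Compounds were titrated across several concentrations (up to approximately 40 uM) and incubated 48 hours with HeLa miR-21-FLuc reporter cells (miR-21 target sequence downstream of FLuc, endogenous miR-21). Readout was firefly luciferase luminescence after lytic detection reagent.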
uPA generation: blocks generation of uPA at the cell surface; cell surface uPA generation assay, qHTS; Potency, µM (top dose mostly 38.3 µM), usual class: inhibitors; hit rate 0.31% among 330,000; active = well fitted inhibition curve with a large enough effect; inconclusive = small, poorly fitted or top-dose-only effect; inactive = no such curve, though single readings can be large or run the other way; tested in mouse RAW 264.7 cells; also: nearly all actives have a fitted effect of over 55% in size
DT40 TDP1 no CPT: qHTS for Inhibitors of human tyrosyl-DNA phosphodiesterase 1 (TDP1): qHTS in cells in absence of CPT | Potency, µM (doses to about 46.2 µM), hits mostly inhibitors | hit rate 15% among 420,000 | DT40 Tdp1-/- hTDP1 cells, no CPT, ATP luminescence, 48 h; also: nearly all actives have a fitted effect of over 55% in size
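Cells were dispensed at 400 per well, compounds added by pin tool, plates incubated ≥48 hr at 37 °C, then CellTiter-Glo added for 30 min at room temperature before luminescence reading. Line: DT40 Tdp1-/- complemented with hTDP1; camptothecin omitted.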
TDP1 inh: TDP1 (human) enzyme inhibition | Q9NUW8 | recombinant TDP1, AlphaScreen DNA substrate cleavage | Potency, µM (titrated, usually from 130 µM), hits mostly inhibitors | hit rate 0.28% among 350,000; also: nearly all actives have a fitted effect of over 40% in size
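Recombinant human Tdp1 (E. coli-expressed, 1 nM final) preincubated with compounds 15 min at room temperature, then 5'-biotin/3'-phosphotyrosine-FITC DNA substrate (15 nM final) added for 5 min. AlphaScreen beads (10 ug/ml final) added 10 min; cleavage lowers signal.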
DT40 TDP1 CPT: DT40-hTDP1 cell growth loss with CPT. hit rate 12% among 420,000. chicken DT40 Tdp1-/-;hTDP1 cells + 20 nM CPT, ATP luminescence, 48 h. AID 686979. Potency, µM (highest dose often 46.2 µM), actives largely listed as inhibitors; also: nearly all actives have a fitted effect of over 55% in size
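Chicken DT40 Tdp1-/- cells stably complemented with human TDP1 were seeded at 400 cells/well in medium containing 20 nM camptothecin, exposed to pin-transferred compounds, and grown at 37 °C for at least 48 hr. Viability was read as ATP luminescence.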
Hits are given with their value; - = inactive; ? = inconclusive; . = not tested or not shown. Shown are actives, neighbours in structure and some others; about 16% of the full set was active somewhere. Unless noted, calls follow the shape of the dose curve; as a rule, active = well fitted curve in the direction sought with a large enough effect; inconclusive = small, poorly fitted or top-dose-only effect, or another doubt; inactive = no such curve, though single readings can be large; an effect the other way counts as inactive or inconclusive.

SMILES | miR-21 FLuc | uPA generation | DT40 TDP1 no CPT | TDP1 inh | DT40 TDP1 CPT
c1csc(CNc2ncnc3sccc23)c1 | . | - | 5.2µM | . | 5.2µM
c1ccc(CSc2ncnc3sccc23)cc1 | - | ? | - | . | -
COc1ccc(CNc2ncnc3sccc23)cc1OC | - | - | 7.3µM | - | 8.2µM
CN(C)C(CNc1ncnc2sccc12)c1ccccc1 (configuration not stated) | - | - | ? | - | -
COCc1cc(C)nc2c1C(=O)NC(c1ccc(NC(C)=O)cc1)N2Cc1ccccc1 (configuration not stated) | - | . | . | - | .
Cc1nnc(SCC(=O)Nc2ccc(OC(F)F)c(Cl)c2)n(N)c1=O | . | - | - | - | -
CCc1cc(=O)oc2c(C)c(O)c(CN3CCCCC3)cc12 | - | - | - | - | -
COc1ccc(CNc2ncnc3c2cnn3-c2ccc(C)c(C)c2)cc1 | - | . | - | - | -
Cc1sc2ncnc(NCc3ccccc3)c2c1C | - | - | 15µM | - | 13µM
COc1ccc(CNc2ncnc3sccc23)cc1 | - | - | 4.1µM | - | 5.8µM
Cc1cc2c(NCc3ccccc3)ncnc2s1 | - | - | 6.5µM | . | ?
Cc1cccc(NS(=O)(=O)c2ccc(C)c(C(=O)NCc3ccncc3)c2)c1 | . | - | ? | . | -
N#Cc1cccc(NC(=O)N2CCCC3(CCN(C(=O)c4ccncc4)CC3)C2)c1 | . | . | - | . | -
COc1cc(C(=O)NCCc2sc(-c3cccc(F)c3)nc2C)cc(OC)c1OC | - | . | 12µM | - | 9.2µM
COc1ccc(S(=O)(=O)NCCc2sc(-c3cccc(F)c3)nc2C)cc1 | - | . | 21µM | - | 16µM
COC(=O)c1ccc(NC(=O)C(=O)NCCc2sc(-c3cccc(F)c3)nc2C)cc1 | - | . | ? | - | 12µM
Cc1cc(S(=O)(=O)NCCc2csc(-c3cccc(F)c3)n2)ccc1F | - | . | 1.3µM | - | ?
O=S(=O)(NCCc1csc(-c2cccnc2)n1)c1cccc(F)c1 | - | - | - | - | -
NC(=O)C1CCN(C(=O)/C(=C/c2ccccc2)NC(=O)c2ccccc2)CC1 | - | - | - | . | -
Nc1ccccc1C(=O)C[C@H](N)C(=O)O | . | - | - | - | -
O=C(CC1C(=O)NCCN1C(=O)Nc1ccc(F)cc1)Nc1ccc(F)cc1 (configuration not stated) | - | - | - | . | -
COc1ccc(C2Nc3ccccc3C(=O)N2Cc2ccco2)cc1COc1ccc(N)cc1 (configuration not stated) | . | . | . | - | .
Cc1ccc2c(COC(=O)c3ccccc3OC(F)F)cc(=O)oc2c1 | - | - | - | - | -
CCc1ccc2c(CN(C)Cc3ccc(OC(F)F)c(OC)c3)cc(=O)oc2c1 | - | - | ? | . | 18µM
FC(F)(F)c1ccc(NC(=S)NCc2ccccc2)cc1 | - | - | ? | - | 15µM
SMILES | miR-21 FLuc | uPA generation | DT40 TDP1 no CPT | TDP1 inh | DT40 TDP1 CPT
CN(C)CCCN(Cc1ccccc1)C(=S)Nc1ccc(SC(F)F)cc1 | - | ? | 23µM | - | 18µM
FC(F)Sc1ccc(NC(=S)NCc2ccccc2)cc1 | - | - | ? | - | 26µM
CN(C)CCCN(Cc1ccccc1)C(=S)NCc1ccccc1 | - | - | ? | - | -
O=C(O)c1ccc(NC(=S)NCc2ccccc2)cc1 | - | - | - | . | ?
CC1CCN(CCNC(=O)C2CCCN(S(=O)(=O)c3cccc4nsnc34)C2)CC1 (configuration not stated) | - | - | - | - | -
CCCCCCCC(=O)NNC(=O)c1c(O)c2ccccc2n(CCC)c1=O | - | - | 23µM | - | ?
CCCCCCC(=O)NNC(=O)c1c(O)c2ccccc2n(CCC)c1=O | - | - | ? | - | ?
CCCn1c(=O)c(C(=O)Nc2ccccc2N)c(O)c2ccccc21 | . | . | ? | . | 26µM
CCCn1c(=O)c(C(=O)Nc2ccccc2C)c(O)c2ccccc21 | - | - | ? | . | ?
CCn1c(=O)c(C(=O)Nc2ccccc2C)c(O)c2ccccc21 | - | . | 23µM | - | ?
CCCCCn1c(=O)c(-c2nc3ccccc3[nH]2)c(O)c2ccccc21 | - | - | 9.2µM | - | 21µM
CCCn1c(=O)c(C(=O)NC(C)c2ccccc2)c(O)c2ccccc21 (configuration not stated) | - | - | 26µM | . | ?
COc1ccc(C2Nc3ccccc3C(=O)N2c2ccccc2F)cc1COc1ccc(NC(C)=O)cc1 (configuration not stated) | . | . | 18µM | - | 11µM
COc1ccc(C2Nc3ccccc3C(=O)N2c2ccccc2)cc1COc1ccc(NC(C)=O)cc1 (configuration not stated) | . | . | ? | - | ?
COc1ccc(C2Nc3ccccc3C(=O)N2c2ccc(Cl)cc2)cc1COc1ccc(NC(C)=O)cc1 (configuration not stated) | . | . | 14µM | - | ?
COc1ccc(C2Nc3ccccc3C(=O)N2C2CCCC2)cc1COc1ccc(NC(C)=O)cc1 (configuration not stated) | . | . | . | - | .
Cc1ccc2occ(CC(=O)N(Cc3ccc(Cl)cc3)C3CCS(=O)(=O)C3)c2c1 (configuration not stated) | - | . | ? | - | ?
CCc1ccc(N2CCCn3c2nc2c3c(=O)n(CCN3CCOCC3)c(=O)n2C)cc1 | - | . | . | - | .
Cc1ccc(-c2c(C(=O)NNC(=S)NCC3CCCO3)csc2C)cc1 (configuration not stated) | - | - | 0.46µM | - | ?
O=C(c1ccc(F)cc1)C1CCN(C(=S)NCC2CCCO2)CC1 (configuration not stated) | - | - | - | - | -
Cc1scc(C(=O)NNC(=S)NCC2CCCO2)c1-c1ccccc1 (configuration not stated) | - | - | ? | - | -
Cc1ccc(C(=O)C2CCN(C(=S)NCC3CCCO3)CC2)cc1 (configuration not stated) | - | - | 10µM | - | 15µM
CC(C)CNC(=S)N1CCC(C(=O)c2ccc3c(c2)OCCO3)CC1 | - | - | 23µM | - | ?
CCOCCCNC(=S)N1CCC(C(=O)c2ccc(C)cc2)CC1 | - | - | ? | . | 18µM
O=C(COC(=O)c1cccnc1)Nc1ccc(F)cc1 | - | - | - | - | -
SMILES | miR-21 FLuc | uPA generation | DT40 TDP1 no CPT | TDP1 inh | DT40 TDP1 CPT
Cn1c(SCC(=O)N(Cc2ccccc2)C(C)(C)C)nc2ccccc21 | - | . | ? | - | ?
COCCCNC(=S)N1CCC(C(=O)c2ccc3c(c2)OCCO3)CC1 | - | - | - | - | ?
C=CCNC(=S)N1CCN(S(=O)(=O)c2ccc(C)cc2)CC1 | - | - | - | . | -
CC(C)(C)NC(=S)N1CCC(C(=O)c2ccc(Cl)cc2)CC1 | - | - | - | . | -
CN(C)CCCNC(=S)N1CCC(C(=O)c2ccc(Cl)cc2)CC1 | . | . | 16µM | . | 23µM
C=CCNC(=S)N1CCC(C(=O)c2ccc(C)cc2)CC1 | - | - | ? | . | 26µM
